This note sets out measurements from US4764522A, “Ethylenediamine monoamides” (Hoffmann-La Roche Inc., priority 1984, dated 1988).

By UniProt entry, the sequences of proteins in these tests, tags left out.
UniProt P19643, whole entry: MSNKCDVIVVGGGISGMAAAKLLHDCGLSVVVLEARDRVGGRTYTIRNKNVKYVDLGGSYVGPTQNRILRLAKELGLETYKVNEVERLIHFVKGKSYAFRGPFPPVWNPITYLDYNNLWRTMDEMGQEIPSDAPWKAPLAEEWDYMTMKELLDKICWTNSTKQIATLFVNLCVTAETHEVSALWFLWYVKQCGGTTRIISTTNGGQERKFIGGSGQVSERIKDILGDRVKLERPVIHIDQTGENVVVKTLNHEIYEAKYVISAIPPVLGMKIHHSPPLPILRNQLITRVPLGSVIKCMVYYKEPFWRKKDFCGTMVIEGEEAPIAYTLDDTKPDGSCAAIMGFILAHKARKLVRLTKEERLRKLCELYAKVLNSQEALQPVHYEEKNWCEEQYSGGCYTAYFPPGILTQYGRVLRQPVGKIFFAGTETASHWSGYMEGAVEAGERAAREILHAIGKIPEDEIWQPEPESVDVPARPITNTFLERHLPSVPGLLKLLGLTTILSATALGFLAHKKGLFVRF

This test addresses T1, monoamine oxidase (MAO) (Rattus norvegicus, UniProt P19643).
T1 construct: from tissue; host or cells: rat brain homogenate (ex vivo, two hours after p.o. dosing)
Kind of test: MAO inhibiting activity measured in homogenates of the brain two hours after p.o. administration to rats (phenethylamine as substrate). Type of test: in vivo. The following applies: po, 2 h, read-out: ED50 (MAO inhibiting activity). As for the experimental part:
The MAO inhibiting activity of the compounds in accordance with the invention can be determined using standard methods. Thus, the substances to be tested were administered p.o. to rats.

In the case of `Cl.NCCNC(=O)c1ccc(Cl)cn1` [N-(2-aminoethyl)-5-chloropyridine-2-carboxamide hydrochloride], the ED50 (commonly the midpoint of the dose-response relation) turned out to be 0.161 µmol/kg.
